Source: patent publication US12258355B2, “Probes for imaging huntingtin protein” (CHDI Foundation, Inc., priority 2014, dated 2025)

Chains of the proteins cited; added tags and fusions are not shown. A line that says so, or that is headed by a name, gives the form on record, which may keep a tag or linker. Residues count along the entry.
UniProt P42858, 1-3142 with tags or gaps with the stated changes: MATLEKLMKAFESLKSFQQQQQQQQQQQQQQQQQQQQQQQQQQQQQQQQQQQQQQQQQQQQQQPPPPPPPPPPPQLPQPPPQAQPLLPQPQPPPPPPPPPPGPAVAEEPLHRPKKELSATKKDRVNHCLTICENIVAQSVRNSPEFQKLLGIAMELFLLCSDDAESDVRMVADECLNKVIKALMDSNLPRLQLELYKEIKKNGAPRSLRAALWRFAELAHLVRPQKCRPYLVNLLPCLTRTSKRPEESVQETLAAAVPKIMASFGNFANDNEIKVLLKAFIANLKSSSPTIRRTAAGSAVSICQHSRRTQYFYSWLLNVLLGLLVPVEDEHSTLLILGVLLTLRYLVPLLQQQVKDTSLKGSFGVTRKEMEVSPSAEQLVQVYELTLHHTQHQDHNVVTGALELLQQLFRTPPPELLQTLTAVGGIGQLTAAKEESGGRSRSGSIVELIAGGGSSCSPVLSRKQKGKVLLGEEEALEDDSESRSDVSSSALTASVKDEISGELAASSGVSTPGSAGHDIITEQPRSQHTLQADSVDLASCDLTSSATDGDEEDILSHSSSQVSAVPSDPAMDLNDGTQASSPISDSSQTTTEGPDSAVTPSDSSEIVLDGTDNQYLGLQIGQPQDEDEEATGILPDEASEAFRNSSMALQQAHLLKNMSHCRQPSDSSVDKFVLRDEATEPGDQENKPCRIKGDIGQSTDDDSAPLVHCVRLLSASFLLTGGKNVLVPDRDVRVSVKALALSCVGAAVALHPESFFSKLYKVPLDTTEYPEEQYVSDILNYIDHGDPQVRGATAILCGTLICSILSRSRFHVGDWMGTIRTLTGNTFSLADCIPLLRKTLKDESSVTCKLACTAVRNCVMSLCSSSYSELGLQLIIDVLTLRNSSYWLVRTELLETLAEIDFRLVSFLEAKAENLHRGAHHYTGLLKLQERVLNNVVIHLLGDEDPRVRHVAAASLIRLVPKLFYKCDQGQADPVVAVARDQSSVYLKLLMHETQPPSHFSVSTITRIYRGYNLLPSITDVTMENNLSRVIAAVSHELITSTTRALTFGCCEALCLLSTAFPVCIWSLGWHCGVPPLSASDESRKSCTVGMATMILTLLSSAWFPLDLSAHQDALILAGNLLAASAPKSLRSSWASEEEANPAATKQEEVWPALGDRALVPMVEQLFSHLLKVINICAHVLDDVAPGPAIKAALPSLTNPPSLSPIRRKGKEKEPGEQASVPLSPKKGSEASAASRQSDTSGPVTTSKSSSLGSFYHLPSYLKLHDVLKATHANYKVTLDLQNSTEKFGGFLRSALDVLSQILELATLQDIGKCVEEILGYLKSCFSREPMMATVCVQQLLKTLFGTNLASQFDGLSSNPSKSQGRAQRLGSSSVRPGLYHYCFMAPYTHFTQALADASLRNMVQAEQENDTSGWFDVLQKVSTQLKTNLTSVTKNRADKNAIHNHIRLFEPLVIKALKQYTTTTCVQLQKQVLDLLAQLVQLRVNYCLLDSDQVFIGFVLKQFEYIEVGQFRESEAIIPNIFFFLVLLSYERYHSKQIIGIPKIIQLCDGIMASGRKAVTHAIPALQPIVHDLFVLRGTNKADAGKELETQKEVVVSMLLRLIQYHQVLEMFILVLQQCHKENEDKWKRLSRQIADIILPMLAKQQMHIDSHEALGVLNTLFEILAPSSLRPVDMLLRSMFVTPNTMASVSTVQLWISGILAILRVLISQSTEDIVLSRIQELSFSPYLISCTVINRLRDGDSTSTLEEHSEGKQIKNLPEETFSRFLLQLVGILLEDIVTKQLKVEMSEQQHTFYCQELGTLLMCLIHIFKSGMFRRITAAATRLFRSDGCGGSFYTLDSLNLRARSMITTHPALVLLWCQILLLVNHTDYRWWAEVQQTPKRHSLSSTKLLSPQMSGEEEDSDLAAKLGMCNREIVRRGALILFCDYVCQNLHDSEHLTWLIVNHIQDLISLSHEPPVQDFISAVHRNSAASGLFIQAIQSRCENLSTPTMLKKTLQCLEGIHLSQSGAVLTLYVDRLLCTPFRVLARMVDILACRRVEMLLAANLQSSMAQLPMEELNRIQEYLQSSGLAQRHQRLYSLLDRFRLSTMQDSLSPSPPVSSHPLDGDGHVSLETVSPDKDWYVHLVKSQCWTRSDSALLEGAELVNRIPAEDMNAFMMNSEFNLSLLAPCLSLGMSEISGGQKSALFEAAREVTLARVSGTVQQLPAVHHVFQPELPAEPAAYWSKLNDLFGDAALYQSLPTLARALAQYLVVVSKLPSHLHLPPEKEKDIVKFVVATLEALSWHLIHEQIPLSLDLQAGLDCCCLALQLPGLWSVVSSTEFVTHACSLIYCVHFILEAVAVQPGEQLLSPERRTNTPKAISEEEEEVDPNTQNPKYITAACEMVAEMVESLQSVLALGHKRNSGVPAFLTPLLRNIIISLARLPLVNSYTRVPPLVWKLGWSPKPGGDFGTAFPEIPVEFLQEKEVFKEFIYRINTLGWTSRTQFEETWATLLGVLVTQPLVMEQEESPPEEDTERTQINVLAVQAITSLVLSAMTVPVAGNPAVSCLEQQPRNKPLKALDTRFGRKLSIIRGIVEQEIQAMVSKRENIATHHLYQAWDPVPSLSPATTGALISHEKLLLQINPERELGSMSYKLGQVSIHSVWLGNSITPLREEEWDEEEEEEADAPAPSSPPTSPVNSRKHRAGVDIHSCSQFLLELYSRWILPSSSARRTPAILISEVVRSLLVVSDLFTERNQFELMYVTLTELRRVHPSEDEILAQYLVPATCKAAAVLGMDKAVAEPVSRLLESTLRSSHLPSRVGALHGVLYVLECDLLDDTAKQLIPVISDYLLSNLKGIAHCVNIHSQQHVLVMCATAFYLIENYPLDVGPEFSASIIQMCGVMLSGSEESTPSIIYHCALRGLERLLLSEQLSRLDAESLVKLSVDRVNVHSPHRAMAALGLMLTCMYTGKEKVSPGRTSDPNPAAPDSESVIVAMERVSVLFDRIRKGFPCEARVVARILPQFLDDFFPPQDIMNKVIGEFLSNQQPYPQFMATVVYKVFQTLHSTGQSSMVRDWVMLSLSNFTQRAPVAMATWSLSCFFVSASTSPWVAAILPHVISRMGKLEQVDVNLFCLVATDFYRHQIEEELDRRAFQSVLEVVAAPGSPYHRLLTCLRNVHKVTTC

Target: Q46 protein aggregates (Homo sapiens, UniProt P42858)
Assay: Q46 radioligand binding assay (RBA)
Settings: read-out: RBA IC50 activity, 10 nM ligand [3H3]MK-3328
Protocol: Q46 Radioligand Binding Assay
For radioligand binding assays (RBA) GST-Q46 protein was generated based on a previous publication (Scherzinger et al. Cell, Vol. 90, 549-558, Aug. 8, 1997). For experiments 33 μM GST-Q46 was incubated with 150 μg/mL thrombin in assay buffer (150 mM NaCl, 50 mM Tris pH 8.0) and 2 mM CaCl2 for 16 hours at 37° C. Aggregated Q46 was pelleted by centrifugation for 5 minutes at 13,000 rpm in a bench top centrifuge and re-dissolved in the same volume of assay buffer. Test compounds were prepared by titration in DMSO at 11 concentrations from 33 μM to 1 nM. For the RBA, Q46 protein aggregates and test compounds were pre-incubated in assay buffer for 20 minutes at room temperature, in 140 μL/well in a 96-well plate (pp, round bottom). Then, ligand was added in 10 μL/well and incubated for 60 minutes at 37° C. Final assay concentrations were 1 μM to 30 pM test compound, 5 μM Q46 protein (equivalent monomer concentration) and 10 nM ligand [^3H3]MK-3328 (Harrision et al., ACS Med. Chem. Lett., 2 (2011), pp 498-502). Samples were transferred onto GF/B filter plates and washed 2× with 200 μL PBS using a Filtermate Harvester. After drying filter plates for 1 hour at 37° C., the back of the plates were sealed with foil and 30 μL/well scintillation fluid (Packard MicroScint 40) added, incubated for 15 minutes in the dark and counted in a TopCount reader. For analysis, replicate data from independent assay plates were normalized towards 0% and 100% inhibition using control wells of vehicle (0% inhibition) and 3 μM unlabelled MK-3328 (100% inhibition). IC50 values were determined with a sigmoidal inhibition model with four variables (top, bottom, slope, IC50) in a global fit using the normalized replicate data.

| pIC50 | Structure (SMILES) |
| --- | --- |
| > 7.00 | COc1ccc(COc2ccc3oc(-c4cnn(C)c4)nc3c2)nc1 |
| > 7.00 | COc1ccc(COc2ccc3oc(-c4cncnc4)nc3c2)nc1 |

| Structure (SMILES) | pIC50 |
| --- | --- |
| COc1cnc(COc2ccc3oc(-c4ccncc4C#N)cc3c2)cn1 | > 7.00 |

pIC50: −log10 of the molar value.
